Structures are written as SMILES.

Sequences of proteins named here, by UniProt entry; tags and fusion partners are left off. Residues count along the entry.
UniProt P56524, 648-1032: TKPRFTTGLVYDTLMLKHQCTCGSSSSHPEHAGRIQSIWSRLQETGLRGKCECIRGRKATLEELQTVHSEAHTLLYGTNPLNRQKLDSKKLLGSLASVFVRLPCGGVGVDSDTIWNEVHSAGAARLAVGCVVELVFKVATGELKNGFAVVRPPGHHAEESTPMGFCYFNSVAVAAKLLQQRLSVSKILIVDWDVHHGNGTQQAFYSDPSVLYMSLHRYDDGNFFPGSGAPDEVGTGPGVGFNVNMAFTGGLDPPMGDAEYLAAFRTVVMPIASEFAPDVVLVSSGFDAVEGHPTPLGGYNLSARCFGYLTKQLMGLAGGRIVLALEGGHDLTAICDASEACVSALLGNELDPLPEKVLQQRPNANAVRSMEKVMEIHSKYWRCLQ

The target in the assay is human catalytic domain HDAC4 protein (amino acids 648-1032) (Homo sapiens (Human), UniProt P56524). The assay can be described thus: Inhibition of HDAC4 catalytic domain enzymatic activity, fluorogenic substrate Boc-Lys(Tfa)-AMC. To be noted: HDAC4 catalytic domain enzyme, read-out: Biochemical HDAC4 IC50. An excerpt:
Analysis of Inhibition of HDAC4 with Class IIa Histone Deacetylase (HDAC) Inhibitors
The potency of Class IIa Histone Deacetylase (HDAC) inhibitors is quantified by measuring the Histone Deacetylase 4 (HDAC4) catalytic domain enzymatic activity using the fluorogenic substrate, Boc-Lys(Tfa)-AMC. The substrate is deacetylated to Boc-Lys-AMC by HDAC4. Cleavage by trypsin results in the release of the fluorophore AMC from the deacetylated substrate. The fluorescence of the sample is directly related to the histone deacetylase activity in the sample.
Serially dilute HDAC inhibitor compounds. […] Stocks of 6 μl aliquots of the 10 mM compound in DMSO are prepared and stored at […]. From one stock aliquot of each compound to be tested and the reference compound, a 16-point serial dilution is prepared according to Table 1 using a 125 μl 16-channel Matrix multi-channel pipette (Matrix Technologies Ltd).
2 μl (200×) of each diluted solution and each control (full activity: 100% DMSO alone or full inhibition 1 mM) is stamped into V-bottomed polypropylene 384-well compound plates using either the Bravo (384-well head from Agilent) or 12.5 μl 16-channel Matrix multi-channel pipette (Matrix Technologies Ltd).
Prepare HDAC4 catalytic domain enzyme (0.2 μg/mL).
Prepare 5× ([…]) Boc-Lys(Tfa)-AMC Substrate. 5× (50 μM) substrate is prepared just prior to the addition to the assay. A 1 mM substrate stock is made by diluting a 100 mM Boc-Lys(Tfa)-AMC in DMSO solution 1:100 by adding it drop-wise to assay buffer (equilibrated to r.t.) while vortexing at slow speed to prevent precipitation. The 5× substrate is prepared by diluting the 1 mM substrate solution 1:20 by adding it drop-wise to assay buffer (equilibrated to r.t.) while vortexing at slow speed to prevent precipitation.
Prepare 3× (30 μM) Developer/Stop Solution.
Assay. 5 μl of each solution of 1:20 diluted compound from above is transferred to a clear bottomed, black, 384-well assay plate using the Bravo or the Janus (384-well MDT head from Perkin Elmer). Using a 16-channel Matrix multi-channel pipette, 35 μl of the working solution of HDAC4 catalytic domain enzyme (0.2 μg/mL in assay buffer) is transferred to the assay plate. […] The assay plate is then shaken for two minutes on an orbital shaker at 900 rpm (rotations per minute). Next the plate is incubated for 15 minutes at 37° C. The reaction is stopped by adding 25 μl of 3× (3 μM) developer/stop solution to the assay plates using either the Bravo, Janus or a 16-channel Matrix multi-channel pipette. Assay plates are then shaken for 5 minutes on an orbital shaker at 1200 rpm. Next, the assay plates are incubated at 37° C. for 1 hour in a tissue culture incubator.
Usually IC50 stands for the concentration at which inhibition is half-maximal. For the compound `CCN(CC)CCn1cc([C@@H]2CC[C@@](C(=O)NO)(c3cccc(F)c3C)C2)cn1` (relative stereo) [Example 51, (1S,3R*)-3-(1-(2-(diethylamino)ethyl)-1H-pyrazol-4-yl)-1-(3-fluoro-2-methylphenyl)-N-hydroxycyclopentanecarboxamide], the 50% inhibitory concentration (IC50) is 82 nM.
To `Cc1c(F)cccc1[C@]1(C(=O)NO)CC[C@@H](c2ccc3sc(C4CC4)nc3c2)C1` (relative stereo) [Example 80, (1 S,3R*)-3-(2-Cyclopropylbenzo[c]thiazol-5-yl)-1-(3-fluoro-2-methylphenyl)-N-hydroxycyclopentanecarboxamide] belongs 330 nM; to `Cc1c(F)cccc1[C@]1(C(=O)NO)CC[C@H](N2CCCC2)C1` (relative stereo) [Example 88, (1 S,3S*)-1-(3-fluoro-2-methylphenyl)-N-hydroxy-3-(pyrrolidin-1-yl)cyclopentanecarboxamide], above 50000 nM; to `Cc1c(F)cccc1[C@]1(C(=O)NO)CC[C@@H](c2cnn(CCN3CCOCC3)c2)C1` (relative stereo) [Example 47, (1S,3R*)-1-(3-fluoro-2-methylphenyl)-N-hydroxy-3-(1-(2-morpholinoethyl)-1H-pyrazol-4-yl)cyclopentanecarboxamide], 140 nM.
For the compound `Cc1c([C@]2(C(=O)NO)CC[C@@H](c3ccc4cnn(C)c4c3)C2)ccc(F)c1F` (relative stereo) [Example 86, (1S,3R*)-1-(3,4-difluoro-2-methylphenyl)-N-hydroxy-3-(1-methyl-1H-indazol-6-yl)cyclopentanecarboxamide], the 50% inhibitory concentration (IC50) stood at 90 nM.
In the case of `CCCN(CCC)C[C@@H](C)NC(=O)c1ccc([C@@H]2CC[C@@](C(=O)NO)(c3cccc(F)c3C)C2)cc1` (relative stereo) [Example 52, N—((R)-1-(dipropylamino)propan-2-yl)-4-((1R*,3S)-3-(3-fluoro-2-methylphenyl)-3-(hydroxycarbamoyl)cyclopentyl)benzamide] it was 200 nM; in that of `Cc1c(F)cccc1[C@]1(C(=O)NO)CC[C@H](c2ccc3sc(C4CC4)nc3c2)C1` (relative stereo) [Example 79, (1S,3S*)-3-(2-Cyclopropylbenzo[d]thiazol-5-yl)-1-(3-fluoro-2-methylphenyl)-N-hydroxycyclopentanecarboxamide], 290 nM.
To `CCCN(CCC)C[C@@H](C)NC(=O)c1ccc([C@H]2CC[C@@](C(=O)NO)(c3cccc(F)c3C)C2)cc1` (relative stereo) [Example 53, N—((R)-1-(dipropylamino)propan-2-yl)-4-((1S*,3S)-3-(3-fluoro-2-methylphenyl)-3-(hydroxycarbamoyl)cyclopentyl)benzamide] belongs 160 nM.
Turning to `Cc1c(F)cccc1[C@]1(C(=O)NO)CC[C@@H](c2ccc3c(c2)CN(C2CC2)C3=O)C1` (relative stereo) [Example 59, (1S,3R*)-3-(2-cyclopropyl-1-oxoisoindolin-5-yl)-1-(3-fluoro-2-methylphenyl)-N-hydroxycyclopentanecarboxamide], the concentration for half-maximal inhibition (IC50) turned out to be 140 nM.
As for `Cc1ccccc1[C@H]1CC[C@@](C(=O)NO)(c2cccc(F)c2C)C1` (relative stereo) [Example 8, (±)-(1S*,3S*)1-(3-fluoro-2-methylphenyl)-N-hydroxy-3-(o-tolyl)cyclopentane carboxamide], the 50% inhibitory concentration (IC50) came to 170 nM.
